The text below walks through data of patent US20130203790A1, “SULFUR-CONTAINING COMPOUNDS AS ANTI-PROLIFERATIVE AGENTS” (221076 ONTARIO INC., priority 2011, published 2013).

For the test, the target named is T1, thrombin (thrombin-mediated conversion of fibrinogen to fibrin) (Homo sapiens, UniProt P00734).
T1 construct: purchased Enzyme Research Laboratories
In words: Coagulation assay, microtiter plate turbidity (clot formation, thrombin clot time). The format is biochemical. Here is the method:
Coagulation and fibrinolysis were studied simultaneously in a 96-well microtiter plate-based assay system. Varying concentrations of drug in 50 μl buffer or an equivalent volume of saline were added to the wells. To this was added 100 μl of 6 μM fibrinogen, 1 μM Glu-plasminogen and 4 mM CaCl2. Reactions were initiated by addition of 50 μl of buffer containing 2 nM t-PA and 20 nM thrombin. […] As positive controls, hirudin or D-Phe-Pro-Arg chloromethylketone (PPACK) was used in place of the subject compounds. Plates were incubated at 23° C. for 1 h with constant shaking and turbidity was monitored continuously at 405 nm. Clot times and lysis times were determined using instrument soft wave as the times to half maximal increase and decrease in turbidity, respectively. Data are expressed as the mean±SEM of three experiments, each done in triplicate.
Materials used: • Fibrinogen and thrombin were from Enzyme Research Laboratories and t-PA was from Genentech. • Glu-plasminogen was isolated from human plasma as we have described. • Hirudin and PPACK were from Behring AG and Calbiochem, respectively. • The plate reader was from Molecular Devices.

Setting [1] is: tested at 0-100 nM, 5 nM thrombin.

As for “D-Phe-Pro-Arg chloromethylketone [PPACK]”, for the setting “compounds of the invention up to 400 μM, hirudin and PPACK as positive controls, 23° C., turbidity at 405 nm”, the “effect on clot formation and lysis profiles” value was “inhibited clot formation and lysis”. Besides, under setting [1], the “concentration causing complete inhibition of clotting” value stood at 50 nM and the “lowest concentration with measurable effect on clotting” value was found to be 6.25 nM.
